System: C2C12 cells
Test: C2C12 alkaline phosphatase activity assay with soluble affibodies
Type: cell-based, murine
Details: 20 nM BMP-2 alone, 72 hours
Description: After 72 h, the cells were lysed with Cellytic M (Millipore Sigma), and their ALP activity was quantified and normalized to the total amount of double stranded DNA (dsDNA) present in each well.^88 For the ALP colorimetric assay, 50 μL buffer solution consisting of equal volumes of 1.5 M 2-amino-2methyl-1-propanol solution pH 10.25, 20 mM p-nitrophenyl phosphate solution, and 10 mM MgCl2 hexahydrate solution were mixed with 50 μL of lysed cells and incubated in the dark for 20 minutes before the absorbance of the solutions was read at 405 nm (Synergy Neo2, Biotek). The colorimetric change in the solutions was converted to p-nitrophenol concentration using a calibration curve of 0-0.8 μmol mL^−1 4-nitrophenol solution (Millipore Sigma). The QuantiFluor dsDNA System (Promega) was used for dsDNA quantification.
The ALP activity in each well was normalized to the dsDNA content to account for variability in cell number between samples.
After 72 hours, cells were lysed and their ALP activity was quantified by a colorimetric change caused by the ALP-induced catalysis of p-nitro phenyl phosphate to p-nitrophenol.^88 ALP activity was normalized to the total amount of double-stranded DNA present in each cell culture. Treatment with both uncomplexed and complexed BMP-2 and affibodies was performed to compare the different states in which BMP-2 may be presented in clinical applications. […]

B1: BMP-2: Recombinant human BMP-2 (Medtronic, R&D Systems) (protein)
chain: QAKHKQRKRLKSSCKRHPLYVDFSDVGWNDWIVAPPGYHAFYCHGECPFPLADHLNSTNHAIVQTLVNSVNSKIPKACCVPTELSAISMLYLDENEKVVLKNYQDMVVEGCGCR
Q: With B1 as the molecule, how does the “normalized ALP activity” value read?
A: 37.9 ± 12.5 nmol pNPP μg^−1 dsDNA min^−1

— patent US20250382361A1, “AFFIBODIES, HYDROGELS CONTAINING AFFIBODIES, AND USES THEREOF” (University of Oregon, priority 2024, published 2025)
